AlphaSeq binding of Ab-14 light chain variants to a spike HR2 peptide

The target is the same throughout: PDVDLGDISGINAS, from the HR2 region of SARS-CoV-2 spike.

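Phage display of a naive human antibody library on the peptide gave the parent. Designed CDR sequences, proposed from the first random library and measured here. Several design methods are mixed in this list. In AlphaSeq, yeast of one mating type display the scFv and yeast of the other type display the target. Pairs that bind mate more often; barcode pairs of the diploids are counted by sequencing. Each replicate has its own calibration line, from reference interactions of the BCL2 family. There are six technical replicates.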

Parent scFv Ab-14: VH joined to VL by three GGGGS repeats. Changes lie in the light chain CDRs alone.
VH: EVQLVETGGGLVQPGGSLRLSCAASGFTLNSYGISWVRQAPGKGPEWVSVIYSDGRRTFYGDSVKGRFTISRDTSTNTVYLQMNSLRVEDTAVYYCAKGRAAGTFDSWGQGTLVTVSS
VL: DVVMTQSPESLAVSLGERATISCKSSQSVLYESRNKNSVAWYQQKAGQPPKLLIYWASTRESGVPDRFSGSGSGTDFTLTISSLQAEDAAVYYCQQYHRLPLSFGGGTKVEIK

The parent's light chain CDRs are KSSQSVLYESRNKNSVA, WASTRES, QQYHRLPLS; each variant's own CDRs replace them letter for letter.
Each Kd is an estimate from the mating assay, the geometric mean of the replicates in which the pair was seen; lower is stronger.
A pair that was not seen in any replicate is written "no signal"; this usually means weak binding, but a binder can also be missed.
Nonspecific signal, from three strains lacking the peptide, appeared in 4% of pairings of all light chain designs, centred on 430 nM (5% of these signals below 38 nM); values are not corrected for it. For each scFv, signals with the empty controls are counted beside the result.
The range of this assay differs from that of the first round, and the authors advise against merging the two.
Of ten entries with the parent sequence, four were seen in most replicates (averages 2.2 nM to 240 nM), three in one and three in none, so single entries are noisy.
The authors averaged sequences with at least three values out of six and counted those with two or fewer as poor binders.

| CDR-L1 | CDR-L2 | CDR-L3 | apparent Kd | detected | signal with controls |
|---|---|---|---|---|---|
| KLSWSELYESRNKNSVA | EASTRES | QQYHRLPLS | 670 pM | 6/6 | 0/18 |
| KVPQSVLYESRNKNSVA | DASTRES | QQYHRLPLS | 310 pM | 6/6 | 0/18 |
| MISQSFLIGSRAKNSVA | QTSTRES | QQYDRLPLI | 980 pM | 6/6 | 1/18 |
| ASSQSVLAESCNKNSVA | QASTRES | QQYHRLPLS | 5.6 nM | 6/6 | 2/18 |
| TLSQMSGVEAVKHNNVA | ENSTREE | QQYDRLPLA | 27 nM | 6/6 | 0/18 |
| KLQMMVEMEQRNPNSVA | SASTRLS | QQYHRLPLS | 920 pM | 6/6 | 1/18 |
| KMSQSNDYEERNSNAVA | NASQREM | QQYHRLPLS | 1.8 nM | 6/6 | 2/18 |
| KSSQSVLYEFDNKNSVA | WASTRES | QQYHRLPLS | 16 nM | 5/6 | 0/18 |
| KLAMALSEEFGTYHGVA | DADHRMH | QQYNRLPLS | 2.0 nM | 6/6 | 0/18 |
| KLSQWWLYESRNKNSVA | NASQRES | QQYHRLPLS | 1.5 nM | 6/6 | 1/18 |
| KCSQSVLYESRNKNSVA | GASTRES | QQYHRLPLS | 940 pM | 6/6 | 0/18 |
| KVSQSVLQQSRNSNSVA | EASTREE | QQYHRLPLS | 730 pM | 6/6 | 1/18 |
| KLSQFVGGESRNKSSLA | DNSTRES | QQYHRLPLS | 38 nM | 6/6 | 1/18 |
| KISQMYRYEQQNSSSIA | EANTRLN | QSYHRLPLS | 280 nM | 4/6 | 0/18 |
| HISSMDMLDGGIIHSIA | DTGITER | QQYMRLPLI | 6.5 nM | 6/6 | 3/18 |
| KSSQSVLYEGRNKNSVA | GASTRES | QQYHRLPLS | 2.1 nM | 6/6 | 1/18 |
| KVSEFRRGLMSKQDSIA | DNVTRAN | QQYDRLPLS | 200 nM | 2/6 | 0/18 |
| QMYPFGVAKGEGRNNVA | HVSTRAL | QQYFRLPLV | 12 nM | 6/6 | 0/18 |
| KLSQSVLYESRTKNSVA | EASTRES | QQYHRLPLS | 380 pM | 6/6 | 0/18 |
| KLQQSELYESRNKNSVA | EASTREE | QQYHRLPLS | 640 pM | 6/6 | 1/18 |
| RVSSMLMAGGGIYNNIA | GTKVLER | QQYMRLPLM | 1.6 nM | 6/6 | 1/18 |
| IFSQSVLMGNLTKNSVA | QASTRFE | QQYHRLPLI | 61 nM | 6/6 | 1/18 |
| KSSPSVLYESRNKNSVA | WASTRES | IQYQKLPLS | no signal | 0/6 | 0/18 |
| KSSQSVLYASDNKNSVA | GASTRES | QQYHRMPLS | 3.8 nM | 6/6 | 0/18 |
| KVSQKDPMGSRNKNSVA | HASLRES | QQYHRLPLS | 5.9 nM | 6/6 | 1/18 |
| KLRREADGWNRNEWNIA | DADYRGA | QQYSHLPLC | no signal | 0/6 | 2/18 |
| NFSMELEDMGVKTKSIA | ENQLTEY | QQYARLPLM | 30 nM | 6/6 | 0/18 |
| KLPQSELYESRNKNSVA | NASTRCS | QQYHRLPLS | 910 pM | 6/6 | 3/18 |
| KLSQSVMYESRNKNSVA | EASTRED | QQYHRLPLS | 310 pM | 6/6 | 0/18 |
| MFSQLTYTGQRARNAVA | QASTREN | QQYHHLPLI | 78 nM | 5/6 | 2/18 |
| KSSQSVLYESRNKNSVA | SLSTRES | QQYHRLPLS | 17 nM | 6/6 | 2/18 |
| AVQYQLRPGREIQNPIA | EGSHRAA | QQYDRLPLG | 5.1 nM | 6/6 | 1/18 |
| KLSQSFLYESRNKNSVA | GASTRES | QAYHRLTLS | 1.7 nM | 6/6 | 0/18 |
| KVNQLMNIEQMNSKSVA | HTSTREN | QQYHRLPLS | 11 nM | 6/6 | 1/18 |
| KLSQSWLMESRNKNSVA | EASTRES | QQYHRLPLS | 1.9 nM | 6/6 | 0/18 |
| KMSQSWLYEQRNVNSVA | NASKRLL | QQYHRLPLS | 730 pM | 6/6 | 0/18 |
| KLRMSTHIESFNKNNVA | EMTTRES | QSYDRLPLS | 25 nM | 6/6 | 1/18 |
| QLSMISGHASMIKNNVA | EMETREN | QQYDRLPLS | 11 nM | 6/6 | 0/18 |
| KISMLINQTFEESNNVA | EMVTRYK | QQYNRLPLS | 51 nM | 6/6 | 1/18 |
| KSEQSYYGESRNKNSVA | AASTRES | QQYARLPLS | 520 pM | 6/6 | 0/18 |
| KLSQSVPYEERNKNSVA | NASTRMS | QQYHRLPLS | 400 pM | 6/6 | 1/18 |
| KLYQNVGTMSHNKQSIA | DMERRER | QQYHRLPLS | 1.2 nM | 6/6 | 1/18 |
| RIQMGDFPGKTARNNIA | DGEEGYR | QQYVRLPLS | 2.2 nM | 6/6 | 1/18 |
| KASWSVLFESRNKNSVA | DASTRSS | QQYHRLPLS | 990 pM | 6/6 | 0/18 |
| ALSGSMDMTSRNVNSVA | DLTTRGN | QQYHRLPLS | 870 pM | 6/6 | 1/18 |
| FLSQSVLYESRLDNSVA | NASQRCS | QQYHRLPLS | 6.3 nM | 6/6 | 2/18 |
| KLPQSMLYESRNKNAVA | NASTRES | QQYHRLPLS | 510 pM | 6/6 | 3/18 |
| KLSQSVPYESRNKNSVA | NASTREE | QQYHRLPLS | 1.3 nM | 6/6 | 1/18 |
| MVTQMAMTGMTNKRSVA | NAEMREN | QQYHRLPLI | 96 nM | 3/6 | 0/18 |
| KFSQSVLYEDRNSNSVA | NASTRES | QQYHRLPLS | 1.7 nM | 6/6 | 1/18 |
| KVSISYLYESRNKNSVA | EASTRES | QQYHRLPLM | 280 pM | 6/6 | 0/18 |
| ILSQSVLMGMHTKNAVA | QATMRFN | QQYHRLPFM | 1.6 nM | 6/6 | 1/18 |
| HSSPSVLYESRNKNSVP | NAITRES | QQYHRLPLS | no signal | 0/6 | 0/18 |
| KLQMSVMLESRWCNSVA | SASTREE | QQYHRLPLS | 15 nM | 4/6 | 0/18 |
| ILYESVGTLSRNVNSVA | DNSTRES | QQYDRLPLS | 250 nM | 2/6 | 2/18 |
| KISMMSSIESITHNSVA | QTSTREN | QQYDRLPLS | 2.0 nM | 6/6 | 0/18 |
| HITYGMYVAGRHSKSIA | QAEERAK | QQYDRLPLI | 4.8 nM | 6/6 | 0/18 |
| NITQIFDNMGDQRANVA | NGETLFH | QQYARLPLL | 3.1 nM | 6/6 | 0/18 |
| KSEWGVDDESRNDNQVA | NASTRLS | QQYHRLPLS | 2.6 nM | 6/6 | 5/18 |
| MISQLYNMGQFAINSVA | QASERYN | QQYDRLPLV | no signal | 0/6 | 0/18 |
| MFSSLMEYGSRYKNSVA | QASTREN | QQYHWLPLS | no signal | 0/6 | 0/18 |
| KSSQSVLEESRNKNCVA | WASTRES | QQYHRLPLS | 20 nM | 6/6 | 0/18 |
| KLRQSTLYESRNQNSVA | MASTRES | QQYHRLPLS | 22 nM | 6/6 | 0/18 |
| KLSYSVMLESRNKNAVA | SASTRMS | QDYHRLPLS | 1.7 nM | 6/6 | 1/18 |
| MMSQVTGMGQRHRNNVA | QTSEREP | QQYDRLPLV | 6.8 nM | 6/6 | 0/18 |
| TLFEGRSYWDGDERNIA | DARMRED | QDYARLPLV | 36 nM | 5/6 | 2/18 |
| NVGQMMDGETRNRNSVA | HQSTRED | QHYHRLPLS | 1.5 nM | 6/6 | 1/18 |
| KLQQGYWYESRNKNSVA | WASTREV | QQYWRLPLS | 35 nM | 4/6 | 1/18 |
| KVSQSWLYESRNKNSVA | NASQRMS | QQYHRLPLS | 820 pM | 6/6 | 0/18 |

For reference, 4 entries of the list once more:

| CDR-L1 | CDR-L2 | CDR-L3 | apparent Kd | detected | signal with controls |
|---|---|---|---|---|---|
| KISMMSSIESITHNSVA | QTSTREN | QQYDRLPLS | 2.0 nM | 6/6 | 0/18 |
| KSSQSVLYEGRNKNSVA | GASTRES | QQYHRLPLS | 2.1 nM | 6/6 | 1/18 |
| KMSQSNDYEERNSNAVA | NASQREM | QQYHRLPLS | 1.8 nM | 6/6 | 2/18 |
| QMYPFGVAKGEGRNNVA | HVSTRAL | QQYFRLPLV | 12 nM | 6/6 | 0/18 |

Reference: Li et al. 2023, doi:10.1038/s41467-023-39022-2. File: FLAb, binding data.